23 compounds from PubChem BioAssay AID1259309 (ICCB-Longwood Screening Facility, Harvard Medical School, 2017) can be followed below.

This is a selection; strong and weak results do not stand in their true shares. Some of these compounds have results that are not shown, active ones among them. The source made the active and inactive calls. Rule as the data show it: active = growth inhibition above about 68%; inactive = the rest.

The test in a line: growth inhibition of ugtP-null S. aureus, primary screen, RN4220 ugtP deletion, OD600 (AID 1259309).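 Also: plate controls were untreated wells for no effect and antibiotic for full effect.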 To be noted: 16 h, stronger effect = higher value.
With `O=C(NCC1(N2CCCCC2)CCCCC1)c1cccc(Cl)c1`, the growth inhibition was inactive: -0.327%. As for `COc1cccc(C(=O)NCC2(N3CCCCC3)CCCCC2)c1`, the figure is inactive: -0.688%; as for `COc1ccc(Cl)cc1C(=O)NCC1(N(C)C)CCCCC1`, inactive: 18.1%; as for `COc1cc(C(=O)NCC2(N(C)C)CCCCC2)c([N+](=O)[O-])cc1OC`, inactive: 4.83%. The result for `CN(C)C1(CNC(=O)c2ccc(Br)cc2)CCCCC1` reads inactive: 0.511%; that for `CN(C)c1cccc(C(=O)NCC2(N(C)C)CCCCC2)c1`, inactive: 3.88%. The result for `CC(C)Oc1ccc(C(=O)NCC2(N(C)C)CCCCC2)cc1` reads inactive: 7.47%. Take `O=C(OCCN1CCCC1)C(O)(c1ccccc1)c1ccccc1`: the growth inhibition is inactive: -1.12%. For `COc1ccc(Br)c(C(=O)NCC2(N3CCCCC3)CCCCC2)c1`, the growth inhibition is inactive: -2.73%.

Consider `O=C(OC1CN2CCC1CC2)C(CO)(c1ccccc1)c1ccccc1` (stereo not drawn), for which the growth inhibition is inactive: 3.94%.

For the compound `Cc1ccc(C(=O)NCC2(N3CCCCC3)CCCCC2)cc1`, the growth inhibition was inactive: 3.54%. `COc1cc(SC)ccc1C(=O)NCC1(N(C)C)CCCCC1`: the growth inhibition is inactive: 0.406%. In the case of `CN1[C@@H]2CC[C@H]1CC(OC(=O)C(O)(c1ccccc1)c1ccccc1)C2` (stereo partly drawn), the growth inhibition is inactive: 0.161%. The result for `O=C(NCC1(N2CCCCC2)CCCCC1)c1cc([N+](=O)[O-])ccc1Cl` reads inactive: -1.25%. As for `CCN1CCCC(OC(=O)C2(O)c3ccccc3C=Cc3ccccc32)C1` (stereo not drawn), the figure is inactive: 2.99%; as for `Cc1cc(C(=O)NCC2(N3CCCCC3)CCCCC2)ccc1[N+](=O)[O-]`, inactive: 12.4%. The result for `O=C(NCC1(N2CCCCC2)CCCCC1)c1cccc(Br)c1` reads inactive: 11.4%; that for `COc1ccc(C(=O)NCC2(N(C)C)CCCCC2)cc1`, inactive: 9.15%.

As for `O=C(NCC1(N2CCCCC2)CCCCC1)c1cc(F)c(F)cc1Cl`, the growth inhibition is inactive: 3.49%. As for `CN(C)CCOC(=O)C(O)(c1ccccc1)C1CCCCC1` (stereo not drawn), the figure is inactive: -1.06%. `Cc1ccccc1C(=O)NCC1(N2CCCCC2)CCCCC1`: the growth inhibition is inactive: 4.5%.

With `CN(C)c1ccc(C(=O)NCC2(N(C)C)CCCCC2)cc1`, the growth inhibition was inactive: 0.374%. Regarding `CN(C)C1CCCC1OC(=O)C(O)(c1ccccc1)c1ccccc1` (stereo not drawn), the growth inhibition was inactive: 5%.
